Values quoted from earlier work as cited in US12708677B2, “Contrast agents, methods for preparing contrast agents, and methods of imaging” (Georgia State University Research Foundation, Inc., priority 2008, dated 2026).

Conditions: B0 0.47 T, based on references; cited from earlier work

Poly-lysine
r1: 13 mM⁻¹ s⁻¹
